Consider 1 substance from patent US20250017964A1, “ENGINEERING OR INDUCING PDGF AND/OR PDGFR SIGNALING TO ENHANCE NK CELL THERAPY” (City of Hope, priority 2021, published 2025).

Common to all, as to type: cell-based
The subject of assay [1] is p-p65. The assay can be described thus: Immunoblot of phosphor-p65 in primary human NK cells. The following applies: 10 ng/ml. The text has this:
FIGS. 8A-8E. Three downstream signaling pathways activated by IL-15 and the effects of their inhibition on IL-15-induced PDGFRβ expression as well as phosphor-p65 levels in NK cells treated with IL-2 or IL-15. (A) Scheme for the three IL-15 signaling pathways and their inhibitors. (B) Representative dot plots of PDGFRβ expression in NK cells treated with specific inhibitors. (C) Binding sites for p65 in the promoter regions of PDGFRB and PDGF-D genes (predicted from http://jaspar.genereg.net). (D and E) Primary human NK cells were treated with IL-2 (10 ng/ml) or IL-15 (10 ng/ml) for 0, 5, 15, 30, 60, or 120 min. The cells were collected for an immunoblot using anti-phosphor (p)-p65, anti-p65, and anti-actin antibodies. The ratios of p-p65 to actin were calculated using ImageJ (n=3). Data shown represent the mean±SD. NS, not significant, **P<0.01, ****P<0.0001.
RNA was isolated using an RNeasy Mini Kit (QIAGEN) and reversely transcribed to cDNA with a PrimeScript RT Reagent Kit with gDNA Eraser (Takara Bio) according to the manufacturer's protocol. mRNA expression levels were analyzed using SYBR Green qPCR Master Mix and a QuantStudio 12K Flex Real-Time PCR System (both from Thermo Fisher Scientific). […]
Background: Immunoblotting shows a protein as a band on a membrane.

Assay [2] concerns PDGFRβ expression in human NK cells. Put plainly: Cytokine-induced PDGFRβ expression in purified human NK cells, flow cytometry. The protocol:
FIGS. 1A-1J. IL-15 induces PDGFRβ expression in human NK cells. (A-C) NK cells were purified from PBMCs of healthy donors and stimulated with IL-15 (10 ng/ml) for 24 h. Expression levels of PDGFRα and PDGFRβ were examined by flow cytometry. Data shown are representative dot plots (A), percentages (B), and mean fluorescence intensity (MFI) of PDGFRβ in NK cells (C) (n=20). Resting NK cells were used as the control. (D-E) NK cells were treated with various doses of IL-15 for 24 h (D) or with the same dose of IL-15 (10 ng/ml) at the indicated times (E). Data shown are the percentages of PDGFRβ^+ NK cells among total NK cells (n=5). (F) Immunofluorescence analysis of PDGFRβ expression on resting and IL-15-treated NK cells. Sodium-potassium ATPase was used as a cell membrane marker. Bar=20 μm. (G) Expression of PDGFRβ in the cytoplasmic, nuclear, and cell membrane fractions of NK cells determined by immunoblotting. (H-J) CD56thin and CD56^high NK cells were sorted from PBMCs of healthy donors and treated with IL-15 (10 ng/ml) for 24 h. Expression levels of PDGFRβ were then determined by flow cytometry. Data shown are representative dot plots (H), percentages (I), and MFI (J) of PDGFRβ on NK cells (n=6). Data represent three independent experiments. Data shown are means SD. NS, not significant. *P<0.05 and ****P<0.0001.
(§1) FIGS. 7A-7F. PDGFRα expression on human and mouse NK cells and the dose and time course effect of IL-2 on the expression of PDGFRβ. (A) Purified human NK cells were stimulated with IL-2 (10 ng/ml), IL-12 (10 ng/ml), IL-15 (10 ng/ml), IL-18 (10 ng/ml), or their combinations for 24 h, followed by determining the expression levels of PDGFRα by flow cytometry. Data shown are representative histograms and mean fluorescence intensity (MFI) of PDGFRα. (B) Purified human NK cells were stimulated with IL-2 (10 ng/ml), IL-12 (10 ng/ml), IL-15 (10 ng/ml), IL-18 (10 ng/ml), or their combinations for 24 h. Expression levels of PDGFRβ were examined by flow cytometry (n=6). […] (F) Expression levels of PDGFRβ on NK cells from IL-15 transgenic (Tg) mice were determined by flow cytometry. […]

For assay [3], the system named is murine NK cells. The assay can be described thus: PDGFRβ expression in murine splenic NK cells, flow cytometry. The following applies: splenic NK cells of C57BL/6 mice, mouse cytokines 10 ng/ml, 24 h. The method, then: as §1, with “(n=6). (C and D) Purified human NK cells were treated with various doses of IL-2 as indicated for 24 h (C) or with a specific dose of IL-2 (10 ng/ml) for 72 h, as indicated (D). Data shown are the percentages of PDGFRβ^+ NK cells among total NK cells (n=5).” for “(n=6).”
Cells were stained with the indicated cell-surface markers and/or fixed/permeabilized using a Fixation/Permeabilization Kit (eBioscience). […] Data were analyzed using NovoExpress software (Agilent Technologies).

“IL-2: recombinant human IL-2 (200-02); recombinant murine IL-2 in the mouse NK cell test”: the “level of phosphor (p)-p65 compared with IL-15” value in assay [1] (5 min early time point) is recorded as “slightly higher level of p-p65 than IL-15”; in assay [1] (all time points tested (15, 30, 60, 120 min) except 5 min), “significantly lower than IL-15”. Also, the PDGFRβ expression result is reported as “slightly but not significantly induced PDGFRβ expression” in assay [2] (cytokine 10 ng/ml, 24 h, IL-15 effect dose- and time-dependent); “could only induce weak levels of PDGFRβ” in assay [2] (high doses of IL-2 (200 ng/ml), 24 h); “ineffective” in assay [2] (longer (up to 72 h) stimulation at the low dose (10 ng/ml)). In addition, the “PDGFRβ expression in murine NK cells” value in assay [3] was “did not express PDGFRβ”.
